Experimental findings from patent US10899738B2 (THE REGENTS OF THE UNIVERSITY OF MICHIGAN, priority 2016, dated 2021) are described below.

The chains behind the UniProt entries cited, without tags or fusion partners.
UniProt O00255, whole entry: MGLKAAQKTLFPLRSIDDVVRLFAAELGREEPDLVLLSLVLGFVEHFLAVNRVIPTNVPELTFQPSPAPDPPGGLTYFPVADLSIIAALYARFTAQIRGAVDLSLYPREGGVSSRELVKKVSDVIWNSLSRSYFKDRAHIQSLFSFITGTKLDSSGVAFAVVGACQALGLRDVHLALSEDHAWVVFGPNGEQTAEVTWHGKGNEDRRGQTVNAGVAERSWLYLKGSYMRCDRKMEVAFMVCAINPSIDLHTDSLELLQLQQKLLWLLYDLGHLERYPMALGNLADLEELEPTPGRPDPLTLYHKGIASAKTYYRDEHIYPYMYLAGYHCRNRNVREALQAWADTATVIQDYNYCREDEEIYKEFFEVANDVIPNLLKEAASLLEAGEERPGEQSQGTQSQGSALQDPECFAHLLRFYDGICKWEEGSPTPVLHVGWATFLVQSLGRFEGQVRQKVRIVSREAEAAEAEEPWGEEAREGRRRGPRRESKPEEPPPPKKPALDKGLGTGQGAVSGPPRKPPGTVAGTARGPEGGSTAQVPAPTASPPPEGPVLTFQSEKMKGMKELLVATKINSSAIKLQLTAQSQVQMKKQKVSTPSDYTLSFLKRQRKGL

The structures appear in SMILES notation.

The target in the test is menin protein (Homo sapiens (Human), UniProt O00255). The conditions noted are these: read-out: Menin Binding Affinity IC50; FP competitive binding; menin protein 4 nM, FAM-MM2 probe 2 nM.

In the case of `CCS(=O)(=O)c1ccc(N2CCC(C(=O)N3CCC(C4(C5CCCC5)NCCc5c(F)cccc54)CC3)CC2)cc1` (stereo not shown), the concentration for half-maximal inhibition (IC50) turned out to be 7.2 µM.

The IC50 is the concentration that gives 50% inhibition.
